# Most compounds without a hit are left out; they make up all but 3.7% or so of the library.
# Nrf2 activator: Nrf2 pathway activation. AID 624171. AREc32 ARE-luciferase reporter (MCF7-derived line), luminescence, 24 h. Potency, µM (highest dose often 46.1 µM), inactives show at the top dose activation, most hits filed as activators. 0.31% of 410,000 active; further: potency means the concentration at half of the fitted maximal effect; % of control where 0% means no effect; nearly all actives have a fitted effect of over 65% in size
#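 For detection, Steady-Glo was added and plates sat 30 min at RT; before that, AREc32_Fluc cells grown overnight in OPTI-MEM/5% FBS had been treated with 23 nL compound for 24 hr at 37 deg C.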
# miR-21 FLuc: miR-21 reporter, rising signal; HeLa miR-21 FLuc reporter, luciferase, 48 h; Potency, µM (doses to about 38.3 µM), for inactives: at the highest dose reporter change, positive = more light; 340,000 tested, under 10 active; AID 2288; active = well fitted rising curve with a large enough effect; inconclusive = small, poorly fitted or top-dose-only effect; inactive = no such curve, though single readings can be large or run the other way;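 further: % of control where 0% means no effect; miR-21 action dims this reporter so a rising signal means less miR-21 action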
#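 HeLa cells endogenously expressing miR-21, stably carrying CMV-driven firefly luciferase with a downstream miR-21 binding site, 2000 cells/well. Titrations up to approximately 40 uM, 48 hours; luciferase luminescence read.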
# A549 tox: A549 cytotoxicity, counter-screen for Nrf2 inhibitors. A549 ARE-Fluc cells, CellTiter-Fluor viability, 18-24 h. Potency, µM (top dose mostly 46 µM), for the others: top-dose activity change, negative = cytotoxicity, actives largely listed as inhibitors. 0.16% of 390,000 active. AID 504648; further: potency means the concentration at half of the fitted maximal effect; on the % scale 0 is the no-effect control and ±100 the full control effect
#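 A549 ARE-Fluc cells in 5% FBS OPTI-MEM, 5000 cells/well, rested 2 h then exposed to compounds in concentration-response for 18-24 h at 37 °C. Viability by CellTiter-Fluor fluorescence (Ex 405/Em 525) after 30 min; luciferase luminescence (BugLite, 15 min, RT) read afterwards.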
# Nrf2 inh: blocks Nrf2 signaling. Potency, µM (series often up to 46 µM), inactives show top-dose activity change, negative = inhibition, actives largely listed as inhibitors. A549 ARE-Fluc reporter, luciferase luminescence, 18-24 h. 2.1% of 360,000 active; further: potency means the concentration at half of the fitted maximal effect; on the % scale 0 is the no-effect control and ±100 the full control effect; nearly all actives have a fitted effect of over 60% in size
#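 In this cell-based qHTS, ARE-driven firefly luciferase in A549 cells reports Nrf2 activity; the luminescent signal after BugLite lysis is the measured value, with a prior CellTiter-Fluor read for cell health.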
# ClpP mod: qHTS Assay for Activators of ClpP. 1.9% of 340,000 active. purified B. subtilis ClpP, FRET peptide cleavage, 20 min. ATP-dependent Clp protease proteolytic subunit (Bacillus subtilis (strain 168)), P80244. AID 651965, 2013. Potency, µM (series often up to 57.5 µM), inactives show at the top dose activity change, negative = active; active means well fitted falling curve with a large enough effect; inconclusive means small, poorly fitted or top-dose-only effect; inactive means no such curve, though single readings can be large or run the other way; further: potency means the concentration at half of the fitted maximal effect; the source files actives as falling curves though it sought activators and does not explain the sign; nearly all actives have a fitted effect of over 65% in size
#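 Purified B. subtilis ClpP, 10 microg/mL final in Tris/HCl pH8 with KCl, BSA, glycerol and Tween-20, cleaved an Abz/nitrotyrosine-quenched decapeptide. Fluorescence (ex 320, em 430) was read at 0 and 20 min at room temperature. Delta was normalized to 5.8 microM ADEP and DMSO/no-enzyme controls.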
# p53 reactivation: restores transcriptional activity of mutant p53; H1299 p53-A138V BP100-luciferase reporter, luminescence, 24 h; Potency, µM (top dose mostly 92.2 µM), inactives show at the top dose activity change, positive = activation, usual class: activators; 0.063% of 320,000 active; further: potency means the concentration at half of the fitted maximal effect; % of control where 0% means no effect; nearly all actives have a fitted effect of over 45% in size
#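 p53-null H1299 cells stably carrying temperature-sensitive p53-A138V and a BP100-luciferase reporter were pinned with compounds (4-point, 1:5 series) and held 24 hrs at 37 deg C. Luminescence was read 10 min after detection reagent.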
# Numbers without * were called inactive; ? = inconclusive; . = no result given; [ ] = dose if it differs, or a comment. Unless noted, the call rests on the fitted dose curve; in most records, active means well fitted curve in the direction sought with a large enough effect; inconclusive means small, poorly fitted or top-dose-only effect, or another doubt; inactive means no such curve, though single readings can be large; an effect the other way counts as inactive or inconclusive.
1. O=C(/C=C/Nc1ccc([N+](=O)[O-])cc1Br)c1cccc2ccccc12
2. CCOc1ccc(-c2nnc(SCC(=O)Nc3cccc(C#N)c3)o2)cc1
3. O=C(COc1ccc2ccccc2c1)NNC(=O)c1cccs1
4. O=C(COc1cccc2ccccc12)NNC(=O)c1cccs1
5. COc1c(C)cc(NS(=O)(=O)c2ccc3c(c2)OCCO3)cc1C
6. COc1ccc(S(=O)(=O)Nc2ccc3c(c2)OCO3)cc1OC
7. Cc1ccc(S(=O)(=O)Nc2ccc3c(c2)OCCO3)cc1C
8. COc1ccc(NS(=O)(=O)c2ccc3c(c2)OCCO3)cc1OC
9. Cc1ccc(NS(=O)(=O)c2ccc3c(c2)N(C)CCO3)cc1
10. CCc1ccc(-n2nc(CO)c(C(=O)NCc3cccnc3)n2)cc1
screen / no.	1	2	3	4	5	6	7	8	9	10
A549 tox	-5%	-2%	2%	-2%	-10%	1%	9%	-12%	-6%	-10%
ClpP mod	25µM*	-22%	-1%	18µM*	3%	1%	.	.	-1%	?
p53 reactivation	?	.	1%	-6%	.	7%	2%	1%	6%	.
miR-21 FLuc	-41%	-4%	-9%	-7%	27%	-16%	-18%	18%	8%	13%
Nrf2 activator	5%	-1%	0%[9.22 µM]	0%	6%	0%	0%	0%	3%	5%
Nrf2 inh	12%	?	-8%	4%	23µM*	3%	-10%	21µM*	26µM*	-4%

11. Cc1ccc(-n2nc(CO)c(C(=O)NCc3ccccn3)n2)cc1C
12. Cc1ccc(CNC(=O)c2nn(-c3ccc(Cl)cc3)nc2CO)cc1
13. Cc1ccc(-n2nc(CO)c(C(=O)NCc3cccnc3)n2)cc1C
14. CCOc1ccc(-n2nc(CO)c(C(=O)NCc3cccs3)n2)cc1
15. O=C(NCc1cccnc1)c1nn(-c2ccc(F)cc2)nc1CO
16. CCCC(=O)N(C)c1ccc(/C=C2\C=Cc3ccccc32)cc1
17. Cc1ccc(-n2nc(CO)c(C(=O)NCc3cccnc3)n2)cc1
18. Brc1ccc(-c2ccc(/C=N/Nc3nc(N4CCOCC4)nc(N4CCOCC4)n3)o2)cc1
19. Clc1ccc(-c2ccc(/C=N/Nc3cc(N4CCOCC4)nc(N4CCOCC4)n3)o2)cc1
20. Cc1ccc(CCNS(=O)(=O)c2ccc3c(c2)CCN3C(=O)CCC(=O)O)cc1
screen / no.	11	12	13	14	15	16	17	18	19	20
A549 tox	-7%	-11%	-5%	0%	3%	.	-1%	4%	-23%	-7%
ClpP mod	-5%	25µM*	16µM*	7.9µM*	25µM*	-1%	7.9µM*	.	7.9µM*	1%
p53 reactivation	.	.	.	.	.	.	.	-6%	-20%	.
miR-21 FLuc	17%	6%	27%	13%	1%	.	17%	2%	-5%	-4%
Nrf2 activator	4%	3%	4%	5%	3%	.	3%	0%	7%	-1%
Nrf2 inh	?	?	-6%	3%	25%	.	-15%	12%	-25%	?

# Among those listed so far, these contain a thiophene ring, fused or not.
3. O=C(COc1ccc2ccccc2c1)NNC(=O)c1cccs1
4. O=C(COc1cccc2ccccc12)NNC(=O)c1cccs1
14. CCOc1ccc(-n2nc(CO)c(C(=O)NCc3cccs3)n2)cc1
screen / no.	3	4	14
A549 tox	2%	-2%	0%
ClpP mod	-1%	18µM*	7.9µM*
p53 reactivation	1%	-6%	.
miR-21 FLuc	-9%	-7%	13%
Nrf2 activator	0%[9.22 µM]	0%	5%
Nrf2 inh	-8%	4%	3%

# Other records
21. Clc1cccc(-c2cc3nc4c(c(N5CCN(c6cnccn6)CC5)n3n2)CCCC4)c1
22. Fc1cccc(-c2cc3nc4c(c(N5CCOCC5)n3n2)CCCC4)c1
23. Cc1nn2c(N3CCCC3)c3c(nc2c1-c1ccccc1)CCC3
24. Clc1cccc(-c2cc3nc4c(c(N5CCOCC5)n3n2)CCCC4)c1
25. OC1CCN(c2c3c(nc4cc(-c5ccc(Cl)cc5)nn24)CCC3)CC1
26. COc1cc(OC)c(NC(=O)c2cn(C)c(=O)c3cc(OC)c(OC)cc23)cc1Cl
27. Cc1cc(C)c(C(=O)/C=C/c2ccc(C(C)C)cc2)c(=O)[nH]1
28. N#C/C(=C/c1ccc(Sc2nc3ccccc3[nH]2)o1)c1ccccc1F
29. N#C/C(=C/c1ccc(Sc2nc3ccccc3[nH]2)o1)c1cccc(Br)c1
30. N#C/C(=C/c1ccc(Sc2nc3ccccc3[nH]2)o1)c1cccc(F)c1
screen / no.	21	22	23	24	25	26	27	28	29	30
A549 tox	14%	4%	-3%	-22%	-4%	4%	-19%	?	?	26µM*
ClpP mod	10µM*	?	.	32µM*	14µM*	-2%	1%	-18%	-5%	-7%
p53 reactivation	24%	18%	-2%	24%	-1%	.	-12%	7%	-3%	-6%
miR-21 FLuc	-41%	-36%	-10%	-49%	-23%	-5%	?	13%	17%	13%
Nrf2 activator	0%	20%	0%	3%	4%	0%	-1%	16%	6%	18%
Nrf2 inh	.	?	?	?	.	-19%[9.27 µM]	18µM*	?	16µM*	21µM*

# One compound at a time, as listed above. Screens in order: A549 tox, ClpP mod, p53 reactivation, miR-21 FLuc, Nrf2 activator, Nrf2 inh
# Shown for `Fc1cccc(-c2cc3nc4c(c(N5CCOCC5)n3n2)CCCC4)c1` : 4%, ?, 18%, -36%, 20%, ?
# Shown for `N#C/C(=C/c1ccc(Sc2nc3ccccc3[nH]2)o1)c1cccc(F)c1` : 26µM*, -7%, -6%, 13%, 18%, 21µM*

# (more compounds)
31. COc1ccc(C)cc1NC(=O)Cc1ccc(NC(=O)N2CCCCc3ccccc32)cc1
32. CCn1cc(C(=O)N2CCN(c3ccccc3F)CC2)c(=O)c2cc(S(=O)(=O)N(C)C)ccc21
33. COc1ccccc1Nc1nc(-c2c(C)nc3ncccn23)cs1
34. COc1ccc(Nc2nc(-c3c(C)nc4ncccn34)cs2)cc1
35. COC(=O)C1=C(C(=O)OC)[C@@H]2N(Cc3ccccc3)c3ccccc3[C@@]23C[C@@H](C(=O)OC)N(C(=O)c2cccs2)C3=N1
36. COC(=O)C1=C(C(=O)OC)[C@@H]2N(Cc3ccccc3)c3ccccc3[C@@]23C[C@@H](C(=O)OC)N(C(=O)c2cc(C)oc2C)C3=N1
37. COC(=O)C1=C(C(=O)OC)[C@@H]2N(Cc3ccccc3)c3ccccc3[C@@]23C[C@@H](C(=O)OC)N(C(=O)CC(C)C)C3=N1
38. CCc1nnc(NC(=O)CSc2nccn2Cc2ccccc2)s1
39. CCOc1ccc(CCNC(=O)c2ccc(C)c(-n3c(C)nc4cccnc43)c2)cc1OCC
40. COc1cc(C)ccc1S(=O)(=O)NC(=O)C1(C)CCN1C(=O)Cc1ccc(Cl)cc1Cl (stereo not given)
41. O=C(C1CCCCC1)N1CCN=C1SCc1cccc([N+](=O)[O-])c1
42. Cc1oc2c(c(C)cc3oc(=O)c(CC(=O)NCCc4ccccc4F)c(C)c32)c1C
43. Cc1ccc(NC(=O)CCn2c(=O)c3cccn3c3ccccc32)cc1Cl
screen / no.	31	32	33	34	35	36	37	38	39	40	41	42	43
A549 tox	-4%	?	?	-21%	?	-16%	1%	0%	-10%	.	-2%	2%	4%
ClpP mod	-1%	-3%	.	-5%	-3%	2%	4%	-1%	-2%	1%	-2%	4%	9%
p53 reactivation	.	.	1%	-2%	-1%	.	-1%	.	.	.	25%	.	.
miR-21 FLuc	-1%	-2%	14%	18%	?	.	22%	-2%	-5%	.	0%	4%	-1%
Nrf2 activator	3%	0%	8%	10%	2%	-2%	1%	1%	-1%	0%	4%	0%	3%
Nrf2 inh	-3%	0%	12µM*	?	29µM*	23µM*	8%	.	1%	.	21µM*	0%	11%

# From PubChem
